Molecular target: MEK1 (Homo sapiens, UniProt Q02750)
Assay: MEK Inhibition Assay-1 (Example 2): 33P-ATP, P81 filter-binding kinase assay
Conditions: read-out: Assay 1: biochemical MEK IC50, Table 10, compounds of formula (IV)
Description: The following procedure can be used to measure biochemical activity. MEK1 inhibitory activity of compounds were tested using the following procedure. […] Nat Biotechnoi 2011, 29(11), 1039-45.
• Reaction buffer: 20 mM Hepes (pH 7.5), 10 mM MgCl2, 1 mM EGTA, 0.02% Brij35, 0.02 mg/mL BSA, 0.1 mM Na3VO4, 2 mM DTT, 1% DMSO • Enzyme: MEK1, Invitrogen cat #PV3303 • N-terminal His-tagged recombinant human full length protein, expressed in insect cells. Activated in vitro by RAF1. MW=49.2 kDa, GenBank Accession No. NP_002746. • Substrate: 5 μM ERK2 (K52R), • Kinase-dead mutant, (GenBank Accession No. NM_0011949), aa2-358 with N-terminal His6 tag, MW=43.63 kDa, expressed in E. coli.
The substrate was prepared in freshly prepared Reaction Buffer. The kinase was delivered into the substrate solution and gently mixed. Test compounds were delivered in 100% DMSO into the kinase reaction mixture by Acoustic technology (Echo550; nanoliter range), and incubated for 20 min at room temperature. ^33P-ATP was delivered into the reaction mixture to initiate the reaction. The reaction mixture was incubated for 2 hours at room temperature. Kinase activity was detected by P81 filter-binding method.

Protein sequences, listed by entry. Tags and fused reporters are not part of them.
UniProt Q02750, whole entry: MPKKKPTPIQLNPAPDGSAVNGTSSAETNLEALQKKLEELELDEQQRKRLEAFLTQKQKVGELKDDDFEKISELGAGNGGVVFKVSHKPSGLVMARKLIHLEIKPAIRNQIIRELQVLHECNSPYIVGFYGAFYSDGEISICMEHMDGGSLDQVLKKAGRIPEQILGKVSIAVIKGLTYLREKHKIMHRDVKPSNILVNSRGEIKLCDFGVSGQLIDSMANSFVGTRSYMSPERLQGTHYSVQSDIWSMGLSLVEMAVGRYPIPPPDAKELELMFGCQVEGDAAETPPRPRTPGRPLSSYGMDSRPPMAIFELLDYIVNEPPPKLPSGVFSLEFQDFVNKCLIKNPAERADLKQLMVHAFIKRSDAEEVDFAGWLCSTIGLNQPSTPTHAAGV

Q: Which IC50 does the source give for `CC(=O)c1sc(Nc2ccc(I)cc2F)c(C(=O)NOCC2COC2)c1C` here?
A: 1000 to 5000 nM

— patent US20230013227A1, “ARYL-ANILINE AND HETEROARYL-ANILINE COMPOUNDS FOR TREATMENT OF BIRTHMARKS” (NFlection Therapeutics, Inc., priority 2018, published 2023)
